The target in this assay is σ receptors (Cavia porcellus, UniProt Q60492). Description: biochemical. It is filed as binding. The conditions noted are these: [3H]3-PPP 2 nM, guinea-pig total brain membrane, 90 min, 25° C., pH 8.5.

Protein sequences, listed by entry. Tags and fused reporters are not part of them.
UniProt Q60492, whole entry: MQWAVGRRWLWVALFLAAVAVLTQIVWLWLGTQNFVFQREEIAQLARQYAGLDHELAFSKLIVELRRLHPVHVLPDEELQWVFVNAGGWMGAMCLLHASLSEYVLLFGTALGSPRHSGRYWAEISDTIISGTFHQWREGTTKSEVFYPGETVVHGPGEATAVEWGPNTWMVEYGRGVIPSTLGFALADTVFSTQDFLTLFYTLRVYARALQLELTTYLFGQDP

IC50 data for one compound are collected here from patent US5643927A, “4-p-fluorobenzoyl-1-piperidinyl-propoxy-chromen-4-one derivatives, their preparation and their use in the treatment of psychosis and schizophrenia” (Ferrer Internacional, S.A., priority 1994, dated 1997).

`OC(CCCN1CCN(c2ncc(F)cn2)CC1)c1ccc(F)cc1` (stereo not shown) [reference compound] yielded a half-inhibitory concentration (IC50) of 49 nM.

In general, IC50 refers to the point on the concentration scale where inhibition reaches its midpoint. The low end stands for inhibition by little substance, the high end for a need for much substance.
